Some of these compounds have results that are not shown, active ones among them.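 Exposure lasted 48 hours, with cells grown in 96-well plates and compounds tested at five concentrations. Here, GI50 denotes the concentration required for 50% inhibition of growth. The concentration for full growth arrest is given as TGI.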
Tests used:
Test in all cases: growth of human tumour cells (NCI), 48 h
786-0 renal = test system: 786-0 renal
A549 NSCLC = test system: A549 NSCLC
ACHN renal = test system: ACHN renal
BT-549 breast = test system: BT-549 breast
CAKI-1 renal = test system: CAKI-1 renal
CCRF-CEM leukemia = test system: CCRF-CEM leukemia
COLO 205 colon = test system: COLO 205 colon
DU-145 prostate = test system: DU-145 prostate
EKVX NSCLC = test system: EKVX NSCLC
HCC-2998 colon = test system: HCC-2998 colon
HCT-116 colon = test system: HCT-116 colon
HCT-15 colon = test system: HCT-15 colon
HL-60(TB) leukemia = test system: HL-60(TB) leukemia
HOP-62 NSCLC = test system: HOP-62 NSCLC
HT29 colon = test system: HT29 colon
IGROV1 ovarian = test system: IGROV1 ovarian
K-562 leukemia = test system: K-562 leukemia
KM12 colon = test system: KM12 colon
LOX IMVI melanoma = test system: LOX IMVI melanoma
M14 melanoma = test system: M14 melanoma
MALME-3M melanoma = test system: MALME-3M melanoma
MCF7 breast = test system: MCF7 breast
MDA-MB-231 breast = test system: MDA-MB-231 breast
MDA-MB-435 = test system: MDA-MB-435
MDA-N = test system: MDA-N
MOLT-4 leukemia = test system: MOLT-4 leukemia
NCI-H226 lung = test system: NCI-H226 lung
NCI-H23 lung = test system: NCI-H23 lung
NCI-H522 lung = test system: NCI-H522 lung
NCI/ADR-RES ovarian = test system: NCI/ADR-RES ovarian
OVCAR-3 ovarian = test system: OVCAR-3 ovarian
OVCAR-5 ovarian = test system: OVCAR-5 ovarian
OVCAR-8 ovarian = test system: OVCAR-8 ovarian
PC-3 prostate = test system: PC-3 prostate
RPMI-8226 leukemia = test system: RPMI-8226 leukemia
RXF 393 renal = test system: RXF 393 renal
SF-268 CNS = test system: SF-268 CNS
SF-295 CNS = test system: SF-295 CNS
SF-539 CNS = test system: SF-539 CNS
SK-MEL-28 melanoma = test system: SK-MEL-28 melanoma
SK-MEL-5 melanoma = test system: SK-MEL-5 melanoma
SK-OV-3 ovarian = test system: SK-OV-3 ovarian
SN12C renal = test system: SN12C renal
SNB-19 CNS = test system: SNB-19 CNS
SNB-75 CNS = test system: SNB-75 CNS
SR leukemia = test system: SR leukemia
SW-620 colon = test system: SW-620 colon
T-47D breast = test system: T-47D breast
TK-10 renal = test system: TK-10 renal
U251 CNS = test system: U251 CNS
UACC-257 melanoma = test system: UACC-257 melanoma
UACC-62 melanoma = test system: UACC-62 melanoma
UO-31 renal = test system: UO-31 renal

## C=C(C)C#CC(O)(C(=O)OC1C2CCN(CC2)C1C)C1CCCCC1 (stereo unspecified)
786-0 renal
  GI50: > 100 µM
  TGI: > 100 µM
A549 NSCLC
  GI50: > 100 µM
  TGI: > 100 µM
ACHN renal
  GI50: > 100 µM
  TGI: > 100 µM
BT-549 breast
  GI50: 7.6 µM
  TGI: > 100 µM
CAKI-1 renal
  GI50: > 100 µM
  TGI: > 100 µM
CCRF-CEM leukemia
  GI50: 47.2 µM
  TGI: > 100 µM
COLO 205 colon
  GI50: > 100 µM
  TGI: > 100 µM
DU-145 prostate
  GI50: > 100 µM
  TGI: > 100 µM
EKVX NSCLC
  GI50: > 100 µM
  TGI: > 100 µM
HCC-2998 colon
  GI50: 25.4 µM
  TGI: 65.9 µM
HCT-116 colon
  GI50: > 100 µM
  TGI: > 100 µM
HCT-15 colon
  GI50: 95.7 µM
  TGI: > 100 µM
HL-60(TB) leukemia
  GI50: 54 µM
  TGI: > 100 µM
HOP-62 NSCLC
  GI50: > 100 µM
  TGI: > 100 µM
HT29 colon
  GI50: 29 µM
  TGI: > 100 µM
IGROV1 ovarian
  GI50: 38.5 µM
  TGI: > 100 µM
K-562 leukemia
  GI50: 33.7 µM
  TGI: > 100 µM
KM12 colon
  GI50: > 100 µM
  TGI: > 100 µM
LOX IMVI melanoma
  GI50: 77.9 µM
  TGI: > 100 µM
M14 melanoma
  GI50: 32.4 µM
  TGI: > 100 µM
MALME-3M melanoma
  GI50: > 100 µM
  TGI: > 100 µM
MCF7 breast
  GI50: > 100 µM
  TGI: > 100 µM
MDA-MB-231 breast
  GI50: > 100 µM
  TGI: > 100 µM
MDA-MB-435
  GI50: > 100 µM
  TGI: > 100 µM
MDA-N
  GI50: > 100 µM
  TGI: > 100 µM
MOLT-4 leukemia
  GI50: 52.6 µM
  TGI: > 100 µM
NCI-H226 lung
  GI50: > 100 µM
  TGI: > 100 µM
NCI-H23 lung
  GI50: > 100 µM
  TGI: > 100 µM
NCI-H522 lung
  GI50: > 100 µM
  TGI: > 100 µM
NCI/ADR-RES ovarian
  GI50: 21.6 µM
  TGI: 57.2 µM
OVCAR-3 ovarian
  GI50: > 100 µM
  TGI: > 100 µM
OVCAR-5 ovarian
  GI50: > 100 µM
  TGI: > 100 µM
OVCAR-8 ovarian
  GI50: > 100 µM
  TGI: > 100 µM
PC-3 prostate
  GI50: > 100 µM
  TGI: > 100 µM
RPMI-8226 leukemia
  GI50: 64.6 µM
  TGI: > 100 µM
RXF 393 renal
  GI50: 99.7 µM
  TGI: > 100 µM
SF-268 CNS
  GI50: > 100 µM
  TGI: > 100 µM
SF-295 CNS
  GI50: > 100 µM
  TGI: > 100 µM
SF-539 CNS
  GI50: 59.9 µM
  TGI: > 100 µM
SK-MEL-28 melanoma
  GI50: > 100 µM
  TGI: > 100 µM
SK-MEL-5 melanoma
  GI50: 24.2 µM
  TGI: 66.6 µM
SK-OV-3 ovarian
  GI50: > 100 µM
  TGI: > 100 µM
SN12C renal
  GI50: > 100 µM
  TGI: > 100 µM
SNB-19 CNS
  GI50: > 100 µM
  TGI: > 100 µM
SNB-75 CNS
  GI50: 62.6 µM
  TGI: > 100 µM
SR leukemia
  GI50: 63.3 µM
  TGI: > 100 µM
SW-620 colon
  GI50: > 100 µM
  TGI: > 100 µM
T-47D breast
  GI50: > 100 µM
  TGI: > 100 µM
TK-10 renal
  GI50: > 100 µM
  TGI: > 100 µM
U251 CNS
  GI50: 80.3 µM
  TGI: > 100 µM
UACC-257 melanoma
  GI50: 26.9 µM
  TGI: 68.2 µM
UACC-62 melanoma
  GI50: > 100 µM
  TGI: > 100 µM
UO-31 renal
  GI50: 14.2 µM
  TGI: 52.8 µM

Source: PubChem BioAssay (NCI)
